80 molecules from PubChem BioAssay AID435003 (Sanford-Burnham Center for Chemical Genomics, 2010) can be followed below.

Only a part is listed here, and it is no random draw. The source made the active and inactive calls. Rule as the data show it: active = inhibition above about 50%; inactive = the rest.

The test can be described thus: inhibitors of induced NF-kB luciferase reporter, primary screen, TCR NF-kB activation inhibitor project, cell-based, luminescence, uHTS (AID 435003). As to conditions: Jurkat, PMA/ionomycin-induced NF-kB luciferase reporter, at 4 µM, stronger effect = higher value. On the technique in general: In a reporter assay the amount or activity of a reporter protein is the signal.
Take `CC(NC(=O)COC(=O)C(O)(c1ccccc1)c1ccccc1)c1ccccc1` (stereo not given): the inhibition (usually the drop in the measured response relative to a control, in per cent) was inactive: 1.92%.

On to `Cc1ccc(OP(=O)(Nc2ccccn2)Oc2ccc(C)cc2)cc1`, for which the inhibition is inactive: 7.27%.

As for `CC(=O)NC(SC(=S)N(CC(C)C)CC(C)C)C(Cl)(Cl)Cl` (stereo not given), the inhibition was inactive: 42.2%.

`COC(=O)c1cc2c(s1)N=C(c1ccccc1)N(C)P2(=O)N1CCOCC1` (stereo not given): the inhibition was inactive: 2.54%.

Take `CCC(=O)N1C2C3N(C(=O)CC)C1C1N(C(=O)CC)C(C(N1C(=O)CC)N3C(=O)CC)N2C(=O)CC`: the inhibition was inactive: -5.74%.

`O=C(OC1CN2CCC1CC2)c1ccccc1` (stereo not given): the inhibition is inactive: 8.57%.

Regarding `O=C(O)COc1ccc([As](=O)(O)O)cc1[N+](=O)[O-]`, the inhibition is inactive: -30.2%.

For the molecule `Nc1ccccc1[As](=O)(O)c1ccccc1`, the inhibition was inactive: 3.66%.

As for `CS(=O)(=O)c1cc([N+](=O)[O-])c2no[n+]([O-])c2c1`, the inhibition is inactive: -8.7%.

With `O=P(Nc1nccs1)(c1ccccc1)c1nc2ccccc2s1` (stereo not given), the inhibition is inactive: -8.65%.

Take `O=P(Nc1nccs1)(Oc1ccccc1)Oc1ccccc1`: the inhibition is inactive: -10.5%.

As to `CCOP1(=S)c2c(C)nn(CCC#N)c2N=C(c2ccccc2F)N1C` (stereo not given), the inhibition was inactive: -4.49%.

As for `CN(C(=O)Cc1ccc(Cl)c(Cl)c1)[C@H]1CC[C@@]2(CCCO2)C[C@@H]1N1CCCC1`, the inhibition was inactive: -0.887%.

In the case of `CN(C)C(=O)c1cc([N+](=O)[O-])cc2c1-c1c(cc([N+](=O)[O-])cc1[N+](=O)[O-])C2=O`, the inhibition was inactive: 17.5%.

With `O=[N+]([O-])c1ccc2c(c1)nnn2O`, the inhibition was inactive: -5.09%.

For the molecule `CCOP1(=S)c2c(C)nn(CCC#N)c2N=C(c2ccc(F)cc2)N1C` (stereo not given), the inhibition was inactive: -4.39%.

Take `CN(C(=O)Cc1ccccc1)[C@@H]1CC[C@]2(CCCO2)C[C@H]1N1CCCC1`: the inhibition is inactive: 15.7%.

Consider `N#CCCN(C(=O)COC(=O)C(O)(c1ccccc1)c1ccccc1)c1ccc(F)cc1`, for which the inhibition was inactive: 6.53%.

For the molecule `NC(=O)Nc1ccc([As](=O)(O)O)cc1`, the inhibition is inactive: 7.89%.

Consider `O=[As](O)(c1cccc(O)c1)c1cccc(O)c1`, for which the inhibition was inactive: 8.25%.

As to `Cc1cccc(OCC(=O)OC2CN3CCC2CC3)c1` (stereo not given), the inhibition was inactive: 2.73%.

`CS(=O)(=O)c1ccc(Cl)c(NC(=O)COC(=O)C(O)(c2ccccc2)c2ccccc2)c1`: the inhibition is inactive: -25.1%.

Turning to `COc1cc(C(=O)NCC2(N3CCOCC3)CCCCC2)cc(Cl)c1OC(C)C`, the inhibition is inactive: -17%.

With `O=[As](O)(O)c1cccnc1`, the inhibition is inactive: 8.44%.

As to `O=C(OC1CN2CCC1CC2)c1ccc(Cl)cc1` (stereo not given), the inhibition was inactive: 11.3%.

Take `CCOP(=O)(Nc1cccc2ccccc12)OCC`: the inhibition is inactive: 6.38%.

With `COc1cc(C2NCCC3(OCCO3)C2(C)C)cc(OC)c1OC` (stereo not given), the inhibition is inactive: 3.05%.

Take `CCCOP(=S)(Nc1nc(N)cc(=O)[nH]1)OCCC`: the inhibition was inactive: 12.4%.

`Cc1ccc(NCCc2c([N+](=O)[O-])cc([N+](=O)[O-])cc2[N+](=O)[O-])cc1`: the inhibition is inactive: -1.21%.

On to `CC(C)(C)C(=O)NC(Sc1ncccn1)C(Cl)(Cl)Cl` (stereo not given), for which the inhibition was inactive: -11.9%.

For the molecule `Clc1n[nH]nc1-c1nn[nH][15n]1`, the inhibition was inactive: -0.785%.

`CN(CCCl)Cc1cc(Cl)c(NC2=NCCN2)c(Cl)c1`: the inhibition is inactive: -3.29%.

For the molecule `CCOP(=O)(Nc1ccc(C)cn1)OCC`, the inhibition is inactive: -21.3%.

With `CCOP(=O)(NC(=NC(C)c1ccccc1)NC(C)c1ccccc1)OCC` (stereo not given), the inhibition is inactive: -6.03%.

For the molecule `CCC1=CC2Cc3nc4ccc(Cl)cc4c(N)c3C(C1)C2` (stereo not given), the inhibition was inactive: -14.7%.

On to `O=P1(Nc2ccccn2)COc2ccccc2OC1`, for which the inhibition was inactive: -5.09%.

With `CC1(CBr)Cn2c(nc3ccccc3c2=O)S1` (stereo not given), the inhibition was inactive: 4.58%.

Take `CN(C(=O)Cc1ccc(Cl)c(Cl)c1)[C@@H]1CCCC[C@H]1N1CCCC1`: the inhibition was inactive: 13.6%.

For the molecule `CC(C)/C=N\N=C(\N)N[N+](=O)[O-]`, the inhibition is inactive: 0.231%.

As to `COc1ccccc1CNC(=O)COC(=O)C(O)(c1ccccc1)c1ccccc1`, the inhibition was inactive: 21.4%.

For the molecule `O=C(/C=C/c1ccccc1)OC1CN2CCC1CC2` (stereo not given), the inhibition was inactive: 2.18%.

Take `CN(C)C1(CNC(=O)c2ccc(S(C)(=O)=O)cc2)CCCCC1`: the inhibition was inactive: -9.7%.

Consider `Cc1ccc(C(=O)OC2CN3CCC2CC3)cc1` (stereo not given), for which the inhibition was inactive: 2.87%.

Turning to `CC1CCC(C(C)C)C(OP(=O)(Nc2ccccn2)c2ccccc2)C1` (stereo not given), the inhibition is inactive: 14.2%.

On to `Cc1nn(-c2ccccc2)c2c1P(=O)(N1CCOCC1)N(C)C(c1ccccc1)=N2` (stereo not given), for which the inhibition is inactive: 12.6%.

Take `NS(=O)(=O)c1cccc(NC(=O)COC(=O)C(O)(c2ccccc2)c2ccccc2)c1`: the inhibition is inactive: 1.36%.

Turning to `O=P1(Nc2ccc(Br)cn2)COc2ccccc2OC1`, the inhibition is inactive: 0.655%.

For `O=[As](O)(c1cccs1)c1cccs1`, the inhibition is inactive: -11.6%.

Take `Cc1ccc(OCC(=O)OC2CN3CCC2CC3)cc1` (stereo not given): the inhibition was inactive: 16.1%.

In the case of `Nc1cccc([As](=O)(O)c2ccccc2)c1`, the inhibition was inactive: 3.74%.

With `O=P1(Nc2ncccn2)COc2ccccc2OC1`, the inhibition is inactive: -8.14%.

In the case of `Cc1cc(SC(NC(=O)c2ccccc2)C(Cl)(Cl)Cl)nc(C(C)C)n1` (stereo not given), the inhibition was inactive: 36.7%.

For `CCCCOc1ccc(C(=O)NCC2(N3CCCCC3)CCCCC2)cc1OC`, the inhibition is inactive: -4.36%.

Regarding `CCOC(=O)Nc1ccc([As](=O)(O)O)c(O)c1`, the inhibition was inactive: 4.64%.

For the molecule `Cc1cc(SC(NC=O)C(Cl)(Cl)Cl)ncn1` (stereo not given), the inhibition is inactive: -9.88%.

`O=P(Nc1ccccn1)(c1cccc2ccccc12)c1cccc2ccccc12`: the inhibition is inactive: -0.985%.

Turning to `CCOC(=O)Nc1cccc([As](=O)(O)O)c1`, the inhibition is inactive: -21.1%.

In the case of `O=C(Nc1ccncc1[N+](=O)[O-])c1ccc([N+](=O)[O-])cc1[N+](=O)[O-]`, the inhibition is inactive: 6.59%.

Regarding `O=C(COc1ccccc1)OC1CN2CCC1CC2` (stereo not given), the inhibition is inactive: 0.442%.

In the case of `COP1(=S)c2c(C)nn(CCC#N)c2N=C(c2ccc(F)cc2)N1C` (stereo not given), the inhibition is inactive: -17.3%.

In the case of `CCC(C)N(CC(C)C)C(=S)SC(NC(C)=O)C(Cl)(Cl)Cl` (stereo not given), the inhibition is inactive: 2.4%.

As to `CCOC(=O)c1ccc(NC(=O)C(C)(CCl)SC)cc1` (stereo not given), the inhibition is inactive: -36%.

As for `O=C(OC1CN2CCC1CC2)c1cccc([N+](=O)[O-])c1` (stereo not given), the inhibition is inactive: -9.22%.

Take `COc1cc(I)ccc1[As](=O)(O)O`: the inhibition was inactive: 3.18%.

On to `COc1ccc2nc(NP(=O)(c3ccccc3)c3ccccc3)sc2c1`, for which the inhibition is inactive: 22.1%.

Consider `Cc1cc(=O)[nH]c(N[N+](=O)[O-])n1`, for which the inhibition is inactive: -17.7%.

For `O=C(OC1CN2CCC1CC2)C12CC3CC(CC(C3)C1)C2` (stereo not given), the inhibition is inactive: 0.846%.

Regarding `Cc1c2c(nc3ccccc13)SC(C(Cl)Cl)C2` (stereo not given), the inhibition was inactive: 4.82%.

As to `COc1ccc(N/C(=N/P(=O)(N2CCOCC2)N2CCOCC2)N2CCOCC2)cc1`, the inhibition is inactive: 5.9%.

Consider `Cc1ccc2nc3c(c(C)c2c1)CC(C(Cl)Cl)S3` (stereo not given), for which the inhibition was inactive: -21.8%.

Take `Cc1ccc(OP(=O)(Nc2ccc([N+](=O)[O-])cn2)Oc2ccc(C)cc2)cc1`: the inhibition is inactive: -3.95%.

As to `COc1cc(C(=O)NCC2(N3CCOCC3)CCCCC2)ccc1OCC(C)C`, the inhibition is inactive: -6.18%.

As for `C[As](=O)(O)c1cccc(C(=O)O)c1`, the inhibition was inactive: -2.7%.

Consider `O=[As](O)(c1ccc(O)cc1)c1ccccc1O`, for which the inhibition was inactive: 0.804%.

Consider `O=[N+]([O-])c1cc([N+](=O)[O-])c(-c2ccn[nH]2)s1`, for which the inhibition was inactive: 25.2%.

As to `O=C(OC1CN2CCC1CC2)c1cccc2[nH]cnc12` (stereo not given), the inhibition was inactive: 11.4%.

As for `CCN(CC)C(=S)SC(NC=O)C(Cl)(Cl)Cl` (stereo not given), the inhibition is inactive: -18.8%.

For the molecule `CC(C)NC(=O)NP(=O)(Oc1ccccc1)Oc1ccccc1`, the inhibition is inactive: -3.09%.

With `CC(C)c1ccc(OP(=O)(Nc2ccccn2)Oc2ccccc2F)cc1` (stereo not given), the inhibition was inactive: 1.27%.

For the molecule `ClCCSc1nnc(-c2cccnc2)o1`, the inhibition is inactive: 5.5%.
